# Data published in patent US5556849A, “Ruthenium containing phthalocyanin photosensitizers” (priority 1991, dated 1996).
# Tests used:
# [1] = system: Adherent cells (HeLa RCA. SKOV OVCAR); assay: Phototoxicity (Light): 3H-thymidine incorporation in adherent cells after irradiation, with dark cytotoxicity for PI; type: cell-based; settings: ratio of PC50 to cytotoxic concentration 50% (no light)
# Description: The media is removed and the cells washed three times with D-PBS. and then covered with D-PBS (200 μl ) and exposed to light from the same source used in the singlet oxygen assay.
# This follows the procedure for phototoxicity except that the cells are never exposed to light. The assay is relative to a non-treated control.
# (§1) Compounds according to the invention were assessed and characterised by their light absorption maxima, and their molar extinction coefficients according to conventional test procedures. Most of the compound were tested for their biological activity according to conventional test procedures in the art. The PC50 represents phototoxic concentration 50%. which is the concentration of compound when exposed to a light dose as described herein, causes a 50% reduction in cancer cell growth vs an untreated control population. The phototoxicity index. PI, is the ratio of the PC50 to the cytotoxic concentration 50%. where the growth is reduced by 50% without a light dose being given.
# PC50 is determined by a relatively simple in vitro assay on a cellular level, which is generally indicative of photosensitizing activity.
# [2] = Light absorption maxima and molar extinction coefficients; type: physicochemical; settings: in water (W)
# Description: as §1
structure (smiles),measurement,setting,value
Nc1ccc(O)c(C(=O)O)c1.Nc1ccc(O)c(C(=O)O)c1.c1ccc2c(c1)C1=NC3=NC(=Nc4c5ccccc5c5[n]4[Ru][n]4c(c6ccccc6c4=N5)=NC2=N1)c1ccccc13 [RuPc(5AS)2],PI (phototoxicity index),[1],> 10
same,λmax Q,[2],635
